PglD inh = PglD (C. jejuni) enzyme inhibition; 0.098% of 360,000 active; inhibition, % at 12.5 µM; purified PglD enzyme, DTNB colorimetric CoA detection; in the data active = inhibition above about 16%, passing the limit was not always enough; inconclusive = no clear call, values can overlap the other calls
PDI inh = PDI (human) enzyme inhibition; 0.052% of 350,000 active; AID 588391; P07237; inhibition, % at 10 µM; PDI insulin aggregation turbidity, A650, 90 min;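 active = mean inhibition across replicates of 30% or more, whatever share of single replicates reach that level; inconclusive = mean inhibition below 30% while every single replicate reaches 30%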
ERp5 inh = inhibitors of human ERp5 | Q15084 | ERp5 insulin aggregation, absorbance 650 nm, 90 min | inhibition, % at 9.99 µM | 0.05% of 350,000 active;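 active = mean replicate inhibition above about 25%, with every replicate also reaching it, limit read from the data, passing the limit was not always enough; inconclusive = only one of those two criteria met; inactive = neither criterion met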
ARNT-TACC3 inh = disruptors of human ARNT/TACC3 interaction | inhibition, % at 9.99 µM | AlphaScreen His-ARNT PAS-B/GST-TACC3 binding, luminescence; TACC3 fragment carries E629A point mutation | AID 623870 | 0.66% of 390,000 active;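 active = mean inhibition of replicates at least 50% and at least half of replicates each reaching 50%; inconclusive = half or more replicates reach 50% but mean below 50%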
FGF22 binding = FGF22 (human) thermal shift binding; Q9HCT0; recombinant FGF22 thermal shift, SYPRO orange fluorescence; percent of sucrose octasulfate shift, DMSO zero; activity (Tm shift, normalised), % at 9.99 µM; 1.5% of 340,000 active; AID 651658;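 active = mean Tm shift, scaled 0 neutral to 100 positive control, at about 1.3% or above, every replicate too, limit read from the data; inconclusive = no clear call, values can overlap the other calls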
UUG fidelity = modulators of yeast start codon fidelity, primary screen, whole organism, S. cerevisiae, single point, plate reader | AID 602363, 2012 | actives 0.13% (n = 350,000) | activity score, % at 18.7 µM | S. cerevisiae UUG-firefly luciferase reporter, luminescence/redox ratio;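 active means replicate mean at a twofold rise or more, about +100% in these data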;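 further: firefly luciferase made from a UUG start codon reports start codon fidelity; reporter light over untreated wells divided by growth signal over untreated wells; some hits fall short of that in this replicate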
Of the large screens only hits and unclear results are named; the others gave an inactive call. Hits are enriched below; roughly 1.9% of the tested compounds scored in any of these assays.

N/C(=N\NS(=O)(=O)c1ccc(Cl)cc1)c1ccccn1	ARNT-TACC3 inh 43.4 (no result: PglD inh, UUG fidelity)
N/C(=N\NC(=O)Nc1ccccc1)c1ccccn1	none (no result: ARNT-TACC3 inh)
N/C(=N\NS(=O)(=O)c1ccccc1)c1ccccn1	ARNT-TACC3 inh 66.5
CCCC[n+]1c(C)sc2cc(OC)ccc21	none (no result: PglD inh, UUG fidelity)
CCC[n+]1c(C)sc2c(OC)ccc(OC)c21	FGF22 binding 43.0
Nc1[nH]c(N=NC(=O)c2ccccc2)c2ccccc12	none (no result: PglD inh, UUG fidelity)
Nc1[nH]c(N=NC(=O)c2ccccc2O)c2ccccc12	ARNT-TACC3 inh 60.1 (no result: ERp5 inh, FGF22 binding)
C[C@H](CO)N1C[C@H](C)[C@@H](CN(C)C(=O)Nc2ccccc2)Oc2ccc(NC(=O)Cn3cnnn3)cc2CC1=O	none (no result: PDI inh)
O=C(NCc1ccccc1)c1ccc(Br)cc1[N+](=O)[O-]	none (no result: PDI inh)
CCNc1nc(NCC)nc(C(=O)OCCO)n1	ARNT-TACC3 inh 49.4
NNC(=O)c1ccc(CN2C(=O)c3cccc4cccc2c34)cc1	FGF22 binding 43.8 (no result: PglD inh, UUG fidelity)
COc1ccccc1/C=N/NC(=O)c1ccc(CN2C(=O)c3cccc4cccc2c34)cc1	none
C[C@H](CO)N1C[C@H](C)[C@H](CN(C)CC2CCCCC2)Oc2ccc(NC(=O)CCN3CCOCC3)cc2C1=O	none (no result: PDI inh)
CNC[C@H]1Oc2c(NC(=O)NC(C)C)cccc2C(=O)N([C@H](C)CO)C[C@@H]1C	none (no result: PDI inh, UUG fidelity)
c1cc(N2CCCCC2)nc(N2CCCCC2)n1	none
C[c-]1[c-](C)[c-](C)[c-](C)[c-]1C.[Fe].c1cc2nccc(N3CCCC3)[c-]2c1 (centres undefined)	ARNT-TACC3 inh 62.4
COc1ccc(S(=O)(=O)N(C)C[C@@H]2Oc3c(NC(=O)Nc4ccc(F)cc4)cccc3C(=O)N([C@H](C)CO)C[C@@H]2C)cc1	none (no result: PglD inh, PDI inh, ARNT-TACC3 inh, UUG fidelity)
O=C(CSc1nc2ccccc2c(=O)n1-c1ccc(SC(F)F)cc1)Nc1ccc(N2CCOCC2)cc1	FGF22 binding 43.0
O=C(CSc1nc2ccccc2c(=O)n1-c1ccc(F)cc1)Nc1ccc(N2CCOCC2)cc1	none (no result: PglD inh, ARNT-TACC3 inh, UUG fidelity)
Cn1cc(CCNC(=O)CC2C(=O)NCCN2Cc2cccc(Oc3ccccc3)c2)cn1 (centres undefined)	FGF22 binding 44.0 (no result: PglD inh, ARNT-TACC3 inh, UUG fidelity)
COC1=C(Br)C(=O)c2ncccc2C1=O	PDI inh 47.1, ARNT-TACC3 inh 47.4 (no result: PglD inh, UUG fidelity)
CSC(=S)NN=C(C)c1cccc(C)n1	ARNT-TACC3 inh 58.9 (no result: PglD inh, UUG fidelity)
CCCCOc1ccc(CSCCN=C(N)N)cc1	FGF22 binding 43.1 (no result: PglD inh, UUG fidelity)
C#CCCCCCCCCC(=O)NCCCC	FGF22 binding 43.3 (no result: PglD inh, UUG fidelity)
Cc1noc(C)c1S(=O)(=O)Nc1ccc2c(c1)CC(=O)N([C@@H](C)CO)C[C@H](C)[C@@H](CN(C)Cc1ccc(C(=O)O)cc1)O2	none (no result: PDI inh)
O=C(C1CCCCC1)N1CC(=O)N2[C@H](CO)[C@H](c3ccc(-c4cccnc4)cc3)[C@H]2C1	none (no result: PglD inh, PDI inh, ARNT-TACC3 inh, FGF22 binding, UUG fidelity)
Cc1cccc(NC(=O)COC(=O)c2ccccc2SCC(=O)N2CCCC2)c1	FGF22 binding 28.3
Nc1nc(SCC(=O)O)[nH]c(=O)c1NC(=O)c1ccccc1F	FGF22 binding 43.0
CSc1nc2c(c(=O)[nH]1)C(c1ccc(F)cc1)CC(=O)N2 (centres undefined)	FGF22 binding 43.4 (no result: PglD inh, UUG fidelity)
CSc1nc2c(c(=O)[nH]1)C(c1ccc(Br)cc1)CC(=O)N2 (centres undefined)	none
O=C(CCOc1ccccc1)Nc1ccnn1C1CCN(Cc2ccc(CO)o2)CC1	FGF22 binding 2.5
Cc1ccc(CN2CCC(n3nccc3NC(=O)CCOc3ccccc3)CC2)o1	none
C[C@H](CO)N1C[C@H](C)[C@H](CN(C)Cc2ccc(Cl)c(Cl)c2)Oc2c(NC(=O)Nc3cccc4ccccc34)cccc2C1=O	none (no result: PDI inh)
CCn1c(SCC(=O)Nc2ccc3c(c2)c2ccccc2n3CC)nnc1-c1ccco1	PDI inh 55.6 (no result: ERp5 inh, FGF22 binding)
Nn1c(SCC(=O)Nc2ccc3c(c2)OCCO3)nnc1-c1ccccn1	ARNT-TACC3 inh 69.7 (no result: PglD inh, ERp5 inh, FGF22 binding, UUG fidelity)
CCn1c(SCC(=O)Nc2cc(NC(C)=O)ccc2OC)nnc1-c1ccccn1	ARNT-TACC3 inh 49.6 (no result: ERp5 inh, FGF22 binding)
COC(=O)c1cc([N+](=O)[O-])c(-n2cncn2)c([N+](=O)[O-])c1	FGF22 binding 43.0 (no result: PglD inh, UUG fidelity)
COC(=O)c1cc(F)c(-n2cncn2)c(F)c1	none
COc1ccc(NC(=O)Nc2ccc3c(c2)[C@@H]2C[C@@H](CC(=O)NCc4ccccn4)O[C@@H](CO)[C@@H]2O3)cc1	none (no result: PDI inh, UUG fidelity)
Cc1noc(C)c1NC(=O)N[C@H]1CC[C@H](CC(=O)N2CCN(C)CC2)O[C@H]1CO	none (no result: PDI inh, UUG fidelity)
O=C(O)c1cccc(N2C(=O)c3cccc(Oc4ccc(Cl)cc4)c3C2=O)c1	FGF22 binding 43.5 (no result: PglD inh, UUG fidelity)
O=C(O)c1ccc(N2C(=O)c3cccc(Oc4ccc(Cl)cc4)c3C2=O)cc1	FGF22 binding 44.5 (no result: PglD inh)
CCN(CC)C(=O)C(=O)c1cccn1-c1cccc(Cl)c1C#N	none (no result: ERp5 inh, FGF22 binding)
CCN(CC)C(=O)C(=O)c1cccn1-c1cccc(OC)c1C#N	FGF22 binding 45.2 (no result: ARNT-TACC3 inh)
COc1ccc(C(C(N)=O)c2ncc(C(F)(F)F)cc2Cl)cc1OC (centres undefined)	FGF22 binding 43.4
Cc1cccc(C(C(N)=O)c2ncc(C(F)(F)F)cc2Cl)c1 (centres undefined)	FGF22 binding 43.6 (no result: PglD inh, UUG fidelity)
C[C@@H]1CN([C@@H](C)CO)C(=O)c2cccc(NC(=O)C3CC3)c2O[C@H]1CN(C)Cc1ccc(-c2ccccc2)cc1	none (no result: PDI inh, UUG fidelity)
C[C@H](CO)N1C[C@H](C)[C@H](CN(C)C(=O)Nc2cccc(F)c2)Oc2ncc(C3=CCCC3)cc2C1=O	none (no result: PDI inh)
Cc1nn(CC(=O)NC(C)c2ccccc2)c(=O)c2ccccc12 (centres undefined)	none (no result: ERp5 inh, FGF22 binding)
Cc1c(C=O)c2ccccc2n1CC(=O)NC(C)c1ccccc1 (centres undefined)	ERp5 inh inconclusive, FGF22 binding 43.2
COC(=O)c1c(N)n(CCCN2CCOCC2)c2nc3ccccc3nc12	none (no result: PglD inh, ERp5 inh, FGF22 binding)
COc1cc2ncnc(NCCCN3CCOCC3)c2cc1OC	none (no result: PglD inh, UUG fidelity)
CCOc1cc2nc(-c3ccc(OC)c(OC)c3)nc(NCCCN3CCOCC3)c2cc1OC	ARNT-TACC3 inh 54.8 (no result: ERp5 inh, FGF22 binding)
COc1cc2nc(=S)n(CCCN3CCOCC3)c(N)c2cc1OC	ARNT-TACC3 inh 55.6 (no result: PglD inh, ERp5 inh, FGF22 binding, UUG fidelity)
O=C(C[C@H]1C=C[C@H](NC(=O)CC2CC2)[C@H](CO)O1)NCc1ccc(-c2ccccc2)cc1	none (no result: PDI inh)
Cc1nc([N+](=O)[O-])c(SCC(O)CCl)n1Cc1ccc(Cl)cc1 (centres undefined)	FGF22 binding 43.2 (no result: PglD inh, UUG fidelity)
C[C@H]1CN([C@@H](C)CO)C(=O)Cc2cc(NC(=O)Nc3ccc4c(c3)OCO4)ccc2O[C@@H]1CN(C)S(C)(=O)=O	none (no result: PglD inh, PDI inh, ARNT-TACC3 inh, FGF22 binding, UUG fidelity)
Cc1cc(NC(=O)CC(C)C)c(=O)n(Cc2ccccc2F)c1	ARNT-TACC3 inh active
COc1ccc(-c2ccnc3ncnn23)cc1	FGF22 binding 42.9 (no result: PglD inh, UUG fidelity)
CCC(=O)Nc1ccc2c(c1)OC[C@H](C)N(C(=O)c1ccc(F)cc1)C[C@@H](C)[C@@H](OC)CN(C)C2=O	none (no result: PDI inh, UUG fidelity)

From PubChem
